Assay results reported in PubChem BioAssay AID624304 (Sanford-Burnham Center for Chemical Genomics, 2012).
This is a selection; strong and weak results do not stand in their true shares. Active and inactive are the calls of the source.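 The calls were made as follows: active = interference check ratio from 0.5 to 1.5 plus GFP to RFP signal ratio inhibition reaching or exceeding a fixed threshold (cut at about 30% in these data, passing the limit was not always enough); inactive = the rest.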

Test: gst-4 reporter inhibition in live C. elegans – whole organism, uHTS, GFP/RFP fluorescence ratio, strain VP596, SKN-1 inhibitor project, primary screen (AID 624304)
Settings: C. elegans VP596 Pgst-4::GFP/RFP ratio, acrylamide-induced, 24 h; at 21.8 µM; active compounds read high
With `O=C(NCC1(N2CCCCC2)CCCCC1)c1ccc(OC(F)F)cc1` the inhibition was inactive: 6.81%.
With `CC(C)(C)n1nnnc1C(c1ccccc1OC(F)(F)F)N1CCC(n2c(=O)[nH]c3ccccc32)CC1` (centres undefined) the inhibition was inactive: 0.61%.
For `N#CC1(Nc2ccccc2)CCN(CCc2ccccc2)CC1`, the inhibition was inactive: 2.01%.
With `O=c1[nH]c2ccccc2n1C1CCN(C(c2ccccc2OC(F)(F)F)c2nnnn2C2CCCC2)CC1` (centres undefined) the inhibition was inactive: 17.5%.
In the case of `CCN1CCC(Nc2ccc(Cl)cc2)CC1`, the inhibition is reported as inactive: 12%.
For `O=C(NCC1(N2CCCCC2)CCCCC1)c1cccc([N+](=O)[O-])c1`, the inhibition was inactive: -2.08%.
In the case of `CSc1ccc(C(=O)NCC2(N3CCOCC3)CCCCC2)cc1`, the inhibition is reported as inactive: 10.3%.
With `O=C(NCC1(N2CCCCC2)CCCCC1)c1cncc(Br)c1` the inhibition was inactive: 18.2%.
With `CN1CCC(Nc2cccc(F)c2)CC1` the inhibition was inactive: 4.41%.
For `COc1ccc(C(c2nnnn2C2CCCC2)N2CCC(n3c(=O)[nH]c4ccccc43)CC2)cc1` (centres undefined), the inhibition was inactive: 9.75%.
For `CCCOc1ccc(C(=O)NCC2(N(C)C)CCCCC2)cc1OC`, the inhibition was inactive: 8.29%.
For `Cc1ccc(C(=O)NCC2(N(C)C)CCCCC2)o1`, the inhibition was inactive: 14.5%.
For `CCCCn1nnnc1C(c1ccccc1OC(F)(F)F)N1CCC(n2c(=O)[nH]c3ccccc32)CC1` (centres undefined), the inhibition was inactive: 4.8%.
In the case of `CC(C)c1ccc(NC2CCN(C(=O)OC(C)(C)C)CC2)cc1`, the inhibition is reported as inactive: 4.05%.
For `CN(C)c1cccc(C(=O)NCC2(N3CCCCC3)CCCCC2)c1`, the inhibition was inactive: -0.915%.
For `COc1ccc(CN(CCCl)CCCl)cc1Cl`, the inhibition was inactive: -0.0863%.
With `O=C(NCC1(N2CCOCC2)CCCCC1)c1cc(F)c(F)cc1Cl` the inhibition was inactive: -4.58%.
With `CCC(c1nnnn1C(C)(C)C)N1CCC(n2c(=O)[nH]c3ccccc32)CC1` (centres undefined) the inhibition was inactive: 7.93%.
In the case of `COc1cc(OC)c(C(=O)NCC2(N(C)C)CCCCC2)cc1OC`, the inhibition is reported as inactive: 21.6%.
In the case of `CCCCn1nnnc1C(c1ccnc2ccccc12)N1CCC(n2c(=O)[nH]c3ccccc32)CC1` (centres undefined), the inhibition is reported as inactive: 11.5%.
With `Cc1cc(C)cc(N(C(=O)c2ccccc2)C2CCN(C(=O)OC(C)(C)C)CC2)c1` the inhibition was inactive: 29.1%.
In the case of `O=c1[nH]c2ccccc2n1C1CCN(C(c2ccccc2OC(F)(F)F)c2nnnn2C2CCCCC2)CC1` (centres undefined), the inhibition is reported as inactive: 12.7%.
With `O=C(NCC1(N2CCCCC2)CCCCC1)c1ccc(Cl)nc1` the inhibition was inactive: 10.6%.
In the case of `O=C(NCC1(N2CCOCC2)CCCCC1)c1cc2ccccc2o1`, the inhibition is reported as inactive: 10.4%.
In the case of `COc1ccc(Cl)cc1C(=O)NCC1(N2CCOCC2)CCCCC1`, the inhibition is reported as inactive: 1.38%.
For `O=c1[nH]c2ccccc2n1C1CCN(C(c2cc3ccccc3o2)c2nnnn2C2CCCCC2)CC1` (centres undefined), the inhibition was inactive: -10.6%.
For `O=C(OC1CN2CCC1CC2)C1c2ccccc2Oc2ccccc21` (centres undefined), the inhibition was inactive: -3.42%.
In the case of `O=C(NCC1(N2CCCCC2)CCCCC1)c1ccc(Cl)s1`, the inhibition is reported as inactive: 16.2%.
In the case of `N#CC1(Nc2ccccc2)CCN(Cc2ccccc2)CC1`, the inhibition is reported as inactive: -0.857%.
For `CCCCn1nnnc1C(c1ccc(OC)cc1)N1CCC(n2c(=O)[nH]c3ccccc32)CC1` (centres undefined), the inhibition was inactive: 1.73%.
For `CCOC(=O)N1CCC(Nc2ccc(OC)cc2)CC1`, the inhibition was inactive: 5.46%.
With `CCC(c1nnnn1C1CCCC1)N1CCC(n2c(=O)[nH]c3ccccc32)CC1` (centres undefined) the inhibition was inactive: -13.9%.
In the case of `CC(C)(C)OC(=O)N1CCC(N(C(=O)c2ccccc2)c2ccc(F)cc2)CC1`, the inhibition is reported as inactive: -18.6%.
With `COc1ccc(C(=O)NCC2(N3CCCCC3)CCCCC2)c(OC)c1OC` the inhibition was inactive: 2.77%.
For `COc1ccc(C(=O)NCC2(N3CCCCC3)CCCCC2)cc1`, the inhibition was inactive: 3.17%.
In the case of `CCCCn1nnnc1C(c1cccs1)N1CCC(n2c(=O)[nH]c3ccccc32)CC1` (centres undefined), the inhibition is reported as inactive: 20.1%.
With `O=C(NCC1(N2CCCCC2)CCCCC1)c1cccs1` the inhibition was inactive: 9.59%.
With `CCCCn1nnnc1C(CC)N1CCC(n2c(=O)[nH]c3ccccc32)CC1` (centres undefined) the inhibition was inactive: 8.54%.
In the case of `O=C(NCC1(N2CCCCC2)CCCCC1)c1ccc(=O)[nH]c1`, the inhibition is reported as inactive: 21.3%.
For `Cc1cccc(NC2(C#N)CCN(Cc3ccccc3)CC2)c1`, the inhibition was inactive: -2.16%.
For `CSc1ccccc1C(=O)NCC1(N2CCCCC2)CCCCC1`, the inhibition was inactive: 17.4%.
For `O=c1[nH]c2ccccc2n1C1CCN(C(c2ccccc2)c2nnnn2C2CCCCC2)CC1` (centres undefined), the inhibition was inactive: 16.5%.
With `COc1cc(C(=O)NCC2(N(C)C)CCCCC2)ccc1OC(F)F` the inhibition was inactive: 8.22%.
In the case of `CCOC(=O)N1CCC(Nc2cccc(C)c2)CC1`, the inhibition is reported as inactive: -9.92%.
With `O=c1[nH]c2ccccc2n1C1CCN(C(c2cccc3ccccc23)c2nnnn2C2CCCC2)CC1` (centres undefined) the inhibition was active: 38.6%.
With `O=C1CCN(Cc2ccccc2)CC1` the inhibition was inactive: -3.68%.
With `CC(C)(C)n1nnnc1C(c1ccccc1)N1CCC(n2c(=O)[nH]c3ccccc32)CC1` (centres undefined) the inhibition was inactive: 11.1%.
With `CCOc1ccc(C)cc1CN(CCCl)CCCl` the inhibition was inactive: -0.64%.
In the case of `CCOC(=O)N1CCC(Nc2ccc(F)cc2)CC1`, the inhibition is reported as inactive: -0.186%.
With `COc1ccc(NC2CCN(CCc3ccccc3)CC2)c(OC)c1` the inhibition was inactive: -5.8%.
For `O=C(NCC1(N2CCCCC2)CCCCC1)c1ccc(F)cc1`, the inhibition was inactive: 9.96%.
For `CCCCOc1ccc(C(=O)NCC2(N3CCOCC3)CCCCC2)cc1`, the inhibition was inactive: 9.36%.
In the case of `CCCCn1nnnc1C(c1cc2ccccc2o1)N1CCC(n2c(=O)[nH]c3ccccc32)CC1` (centres undefined), the inhibition is reported as inactive: 26.2%.
For `O=P1(N(CCCl)CCCl)SCCCS1`, the inhibition was inactive: -20.5%.
